Values quoted from earlier work in publication PMC9191647 (2019).

Conditions: monkeys (Macaca mulatta), i.v. 0.2 mg/kg LSD; ref Axelrod et al., 1957; cited from earlier work

Structure (SMILES): CCN(CC)C(=O)[C@@H]1C=C2c3cccc4[nH]cc(c34)C[C@H]2N(C)C1 [LSD, D-lysergic acid diethylamide]
- plasma concentrations of LSD: > 0.25 µg/mL
